Laboratory results reported in ChEMBL document CHEMBL4823270, “A first-in-class anticancer dual HDAC2/FAK inhibitors bearing hydroxamates/benzamides capped by pyridinyl-1,2,4-triazoles” (Eur J Med Chem, 2021).

Tested on: CAKI-1
Assay: Growth inhibition of human CAKI-1 cells at 10 uM incubated for 24 hrs by MTT assay relative to control
Assay type: functional
Settings: read-out: GI
How it was run: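 Cells seeded at 1 × 10^4 per well, cultured overnight, then exposed to 10 μM compound or DMSO (negative control) for 24 h. After a PBS wash, MTT (2 mg/ml) was added for 4 h at 37°C and formazan dissolved in DMSO. OD read at 570 nm. Growth inhibition = 1 − (OD treated/OD control); at least three independent experiments.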

`O=C(CCCCCSc1nnc(-c2ccncc2)n1-c1ccccc1)NO` showed an inhibition of growth at 10 µM of 7.68%.
